Results as given in patent US20180171288A1, “METHODS OF TREATING CANCER” (THE UNIVERSITY OF ROCHESTER, priority 2016, published 2018).

What was measured:
parental MCF-7 cells = assay: Growth and killing of parental MCF-7 cells in vitro; format: cell-based, human; settings: 48 hrs of exposure to 5 μM
TMXR MCF-7 cells = assay: Growth and killing of TMXR MCF-7 cells in vitro; format: cell-based, human; settings: 48 hrs of exposure to 5 μM

How did the cells killed (parental MCF-7 cells) turn out when 4-hydroxycyclophosphamide was run?
The cells killed was 70%.

And the cells killed (TMXR MCF-7 cells)?
The cells killed was < 10%.
